Test results reported in patent publication US9000182B2, “2H-imidazol-4-amine compounds and their use as BACE inhibitors” (AstraZeneca AB, priority 2012, dated 2015).
pIC50: −log10 of the molar value.

By UniProt entry, the sequences of proteins in these tests, tags left out. Residues count along the entry.
UniProt P56817, 22-460: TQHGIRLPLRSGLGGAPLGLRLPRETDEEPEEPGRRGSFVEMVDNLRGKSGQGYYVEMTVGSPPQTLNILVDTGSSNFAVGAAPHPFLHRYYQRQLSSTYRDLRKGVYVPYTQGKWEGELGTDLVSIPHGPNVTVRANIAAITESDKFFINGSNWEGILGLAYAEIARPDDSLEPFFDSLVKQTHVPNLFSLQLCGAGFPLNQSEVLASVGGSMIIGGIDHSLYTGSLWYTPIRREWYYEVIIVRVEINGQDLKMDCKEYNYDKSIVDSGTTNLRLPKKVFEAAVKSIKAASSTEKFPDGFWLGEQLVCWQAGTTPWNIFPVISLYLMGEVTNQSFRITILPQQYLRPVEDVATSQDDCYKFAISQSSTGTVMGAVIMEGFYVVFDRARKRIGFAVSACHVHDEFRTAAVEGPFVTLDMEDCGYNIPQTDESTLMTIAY

Experiments:
[1] = biological target: T1, human β-Secretase (sBACE-Fc, soluble part AA 1-AA 460) (Homo sapiens (Human), UniProt P56817); assay: Diluted TR-FRET assay; type: biochemical; conditions: IC50 from the diluted FRET assay (footnote a): 50 times less enzyme, 6.5 h reaction time
Procedure: […] Enzyme and compound in dimethylsulphoxide (final DMSO concentration 5%) was mixed and pre-incubated for 10 minutes at RT. […] The reaction was stopped with the addition of 0.35 vol Stop solution (NaAcetate, pH 9). The fluorescence of the product was measured on a Victor II plate reader with excitation wavelengths of 340-485 nm and emission wavelengths of 590-615 nm. […] The dimethylsulphoxide control, instead of test compound, defined the 100% activity level and 0% activity was defined by wells lacking enzyme (replaced with reaction buffer) or by a saturating dose of a known inhibitor, 2-amino-6-[3-(3-methoxyphenyl)phenyl]-3,6-dimethyl-5H-pyrimidin-4-one.

[2] = biological target: T1, human β-Secretase (sBACE-Fc, soluble part AA 1-AA 460); assay: TR-FRET assay; type: biochemical; conditions: standard TR-FRET assay (values without footnote a)
Procedure: The β-secretase enzyme used in the TR-FRET is prepared as follows:
The enzyme (truncated form) was diluted to 6 μg/mL (stock 1.3 mg/mL) and the TruPoint BACE1 Substrate to 200 nM (stock 120 μM) in reaction buffer (NaAcetate, chaps, triton x-100, EDTA pH4.5). Enzyme and compound in dimethylsulphoxide (final DMSO concentration 5%) was mixed and pre-incubated for 10 minutes at RT. Substrate was then added and the reaction was incubated for 15 minutes at RT. The reaction was stopped with the addition of 0.35 vol Stop solution (NaAcetate, pH 9). The fluorescence of the product was measured on a Victor II plate reader with excitation wavelengths of 340-485 nm and emission wavelengths of 590-615 nm. […] The dimethylsulphoxide control, instead of test compound, defined the 100% activity level and 0% activity was defined by wells lacking enzyme (replaced with reaction buffer) or by a saturating dose of a known inhibitor, 2-amino-6-[3-(3-methoxyphenyl)phenyl]-3,6-dimethyl-5H-pyrimidin-4-one.

Row | pIC50 [1] | pIC50 [2] | Compound
1 | 8.57 |  | CO[C@H]1CC[C@]2(CC1)Cc1ccc(C#CC3CCC3)cc1[C@]21N=C(C)C(N)=N1 (single isomer, unassigned; isomer 1) [7, isomer 1]
2 | 8.96 |  | CO[C@H]1CC[C@]2(CC1)Cc1ccc(C#CC(C)C)cc1[C@]21N=C(C)C(N)=N1 (single isomer, unassigned; isomer 1) [9, isomer 1]
3 | 8.33 |  | CO[C@H]1CC[C@]2(CC1)Cc1ccc(OCCC(F)(F)F)cc1[C@@]21N=C(C)C(N)=N1 (single isomer, unassigned; isomer 1) [11, isomer 1]
4 |  | 5.80 | CO[C@H]1CC[C@]2(CC1)Cc1ccc(OCCC(F)(F)F)cc1[C@]21N=C(C)C(N)=N1 (single isomer, unassigned; isomer 2) [11, isomer 2]
5 |  | 7.05 | CC[C@@H](C)Oc1ccc2c(c1)C1(N=C(C)C(N)=N1)[C@]1(CC[C@H](OC)CC1)C2 (some centres unmarked) [Example 18, (1r,4r)-6′-[(28)-Butan-2-yloxy]-4-methoxy-5″-methyl-3′H-dispiro[cyclohexane-1,2′-indene-1′,2″-imidazol]-4″-amine]
